Reference: US10472355B2, “Cancer treatment utilizing SP-141 to bind with MDM2 and act as an inhibitor of MDM2 expression” (Texas Tech University System, priority 2014, dated 2019)

By UniProt entry, the sequences of proteins in these tests, tags left out.
UniProt Q00987, whole entry: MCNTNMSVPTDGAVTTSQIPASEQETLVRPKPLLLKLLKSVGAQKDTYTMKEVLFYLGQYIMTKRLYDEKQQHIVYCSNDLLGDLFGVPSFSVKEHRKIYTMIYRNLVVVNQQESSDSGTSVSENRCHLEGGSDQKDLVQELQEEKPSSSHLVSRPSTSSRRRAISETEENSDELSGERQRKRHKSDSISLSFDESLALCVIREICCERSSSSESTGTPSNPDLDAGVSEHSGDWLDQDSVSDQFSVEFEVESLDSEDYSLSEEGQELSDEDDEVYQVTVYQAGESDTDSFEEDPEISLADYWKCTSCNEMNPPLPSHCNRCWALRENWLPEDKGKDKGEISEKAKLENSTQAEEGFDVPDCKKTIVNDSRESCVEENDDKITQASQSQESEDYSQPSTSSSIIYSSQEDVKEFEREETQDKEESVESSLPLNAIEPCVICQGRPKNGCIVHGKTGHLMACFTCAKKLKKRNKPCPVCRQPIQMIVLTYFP

Molecular target: GST-MDM2 (Homo sapiens, UniProt Q00987)
Test: Biotin-avidin pull-down assay with biotinylated SP-141
Assay type: binding
Details: competition; reduction proportional to dose
From the text: As illustrated in FIGS. 2 and 3.
A western blot analysis is illustrated in FIG. 5. […] Purified GST was used as a negative control. The bound protein was detected using anti-MDM2 and anti-GST antibodies.
The bound protein was detected using anti-MDM2 antibody.

- Effect on Biotin-SP-141-MDM2 binding: markedly reduced
Structure (SMILES): COc1ccc(C2=N[C@@H](c3ccc(Cl)cc3)[C@@H](c3ccc(Cl)cc3)N2C(=O)N2CCNC(=O)C2)c(OC(C)C)c1 [nutlin-3, reference compound]
